The term inhibition denotes the drop in the measured response relative to a control, in per cent.

Only a part is listed here, and it is no random draw. Some tests of the compounds listed are not included; inactive here does not mean inactive elsewhere. Calls of active or inactive are those of the source. No stated cut-off is given here; in the data, active means inhibition above about 41%; inconclusive means no clear call, values can overlap the other calls; inactive means below that.

A short description of this assay: blockers of LMP1-induced NF-kB reporter signal – cell-based, luminescence, single point, primary screen (AID 504558).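 Further: 0% = neutral control wells and 100% = reference inhibitor control.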 Particulars: LMP1-induced NF-kappaB luciferase reporter cells, at 12.5 µM, active compounds read high. On the technique in general: In a reporter assay the amount or activity of a reporter protein is the signal.
As for `COc1cc(C(=O)NCC2(N(C)C)CCCCC2)c([N+](=O)[O-])cc1OC`, the inhibition is inactive: 6.88%.

Turning to `CN(C)C1(CNC(=O)c2ccc(Br)cc2)CCCCC1`, the inhibition was inactive: 8.86%.

`O=C(NCC1(N2CCCCC2)CCCCC1)c1cccc(Cl)c1`: the inhibition is inactive: -26.2%.

For `COc1cccc(C(=O)NCC2(N3CCCCC3)CCCCC2)c1`, the inhibition was inactive: -14.1%.

As to `COc1ccc(Cl)cc1C(=O)NCC1(N(C)C)CCCCC1`, the inhibition is inactive: 5.38%.

On to `O=C(OC1CN2CCC1CC2)C(CO)(c1ccccc1)c1ccccc1` (stereo unspecified), for which the inhibition is inactive: -6.23%.

Consider `CN(C)c1cccc(C(=O)NCC2(N(C)C)CCCCC2)c1`, for which the inhibition was inactive: -9.83%.

As for `CC(C)Oc1ccc(C(=O)NCC2(N(C)C)CCCCC2)cc1`, the inhibition is inactive: -7.53%.

With `O=C(OCCN1CCCC1)C(O)(c1ccccc1)c1ccccc1`, the inhibition is inactive: -1.44%.

Consider `COc1ccc(Br)c(C(=O)NCC2(N3CCCCC3)CCCCC2)c1`, for which the inhibition was inactive: 0.338%.

Take `C=C(C)C#CC(O)(C(=O)OC1CCN(C)CC1)c1ccccc1` (stereo unspecified): the inhibition is inactive: 5.97%.

`CN1[C@@H]2CC[C@H]1CC(OC(=O)C(O)(c1ccccc1)c1ccccc1)C2` (stereo partly specified): the inhibition was inactive: -0.534%.

Turning to `O=C(NCC1(N2CCCCC2)CCCCC1)c1cc([N+](=O)[O-])ccc1Cl`, the inhibition is inactive: -5.81%.

As for `Cc1ccc(C(=O)NCC2(N3CCCCC3)CCCCC2)cc1`, the inhibition is inactive: -20%.

Take `CC(C)N1C(=O)CC2(CCN(CCOC(=O)C(O)(c3ccccc3)c3ccccc3)CC2)C1=O`: the inhibition was inactive: 5.98%.

`CCN(CC)CC(C)C(C)OC(=O)C(O)(c1ccccc1)c1ccccc1` (stereo unspecified): the inhibition is inactive: 2.24%.

For the molecule `COc1cc(SC)ccc1C(=O)NCC1(N(C)C)CCCCC1`, the inhibition was inactive: -3.59%.

`Cc1ccccc1C(=O)NCC1(N2CCCCC2)CCCCC1`: the inhibition was inactive: 2.93%.

`CN(C)C1CCCC1OC(=O)C(O)(c1ccccc1)c1ccccc1` (stereo unspecified): the inhibition is inactive: 4.49%.

`CN(C)c1ccc(C(=O)NCC2(N(C)C)CCCCC2)cc1`: the inhibition was inactive: -1.5%.

`Cc1cc(C(=O)NCC2(N3CCCCC3)CCCCC2)ccc1[N+](=O)[O-]`: the inhibition was inactive: -41.9%.

As for `CCN1CCCC(OC(=O)C2(O)c3ccccc3C=Cc3ccccc32)C1` (stereo unspecified), the inhibition is inactive: -4.69%.

`O=C(NCC1(N2CCCCC2)CCCCC1)c1cccc(Br)c1`: the inhibition is inactive: -40.7%.

For the molecule `COc1ccc(C(=O)NCC2(N(C)C)CCCCC2)cc1`, the inhibition is inactive: 6.23%.

Consider `C=CCN1CCN(CCOC(=O)C(O)(c2ccccc2)c2ccccc2)CC1`, for which the inhibition was inactive: -1.53%.

In the case of `O=C(NCC1(N2CCCCC2)CCCCC1)c1cc(F)c(F)cc1Cl`, the inhibition is inactive: -2.37%.
